Results from paper PMC11492869, “Dimerization and lysine substitution of melittin have differing effects on bacteria” (Frontiers in Pharmacology, 2024).

Key:
Type in all cases: cell-based
S. aureus ATCC 29213 [1] = settings: cation-adjusted MHB, 1 × 10^5 cells/well, 90 min incubation with peptide at 37°C, then growth monitored 20 h at OD630, Lambert and Pearson analysis, mean ± SD, at least three biological repeats
Procedure: (§1) For the antimicrobial peptide assays, a 10 mL starter culture was produced by taking single colonies from LB agar plates to inoculate in Lysogeny/Luria Broth (1% w/v Oxoid Tryptone, 0.5% w/v NaCl, 0.5% w/v Oxoid Yeast Extract, pH 7.0, Thermo Scientific Pty, Ltd., Sydney, Australia) for bacteria; S. aureus ATCC 29213 and E. coli ATCC 8739 were grown aerobically at 37°C in an orbital shaker (Minitron, Infors HT) at 200 rpm. After overnight incubation, 0.5–1.0 mL of the starter culture was used to inoculate fresh LB broth (20 mL), and its growth was monitored at 600 nm using a spectrophotometer (model Varian Cary 50 Bio UV-Vis). Bacteria were harvested during the late exponential growth phase, and CFUs/mL were determined using the growth curve data set that correlated OD600 to CFUs/mL.
(§2) Antibacterial assays were undertaken to determine the minimum inhibitory concentration (MIC), the minimum bactericidal concentration (MBC), and the level of membrane disruption of each of the antimicrobial peptides (AMPs) and multimerized AMPs. For each bacterium, a stock solution (2 × 10^6 cells/mL) in cation-adjusted Mueller Hinton Broth (MHB) was made, and an aliquot was incubated with AMPs within 15 min from viable cell count and stock preparation. All AMPs were dissolved in 5% dimethylsulfoxide (DMSO) and 1 mg/mL stock solutions prepared in PBS. Serial dilutions with 2 x dilution factor (16.87–0.18 μM) of the AMP in cation-adjusted MHB (100 μL/well) were made immediately prior to the addition of bacteria. […] Aliquots (100 μL) of the bacterial stock solution were added to the AMP serial dilutions (final bacterial concentration 1 × 10^5 cells/well) and incubated at 37°C for 90 min. Bacteria were also incubated in the absence of AMP to serve as a growth control for the assay. After the 90-min incubation period, the antimicrobial activity (MIC and MBC) was determined as follows:
(§3) For MIC, the Clinical and Laboratory Standards Institute (CLSI) broth microdilution assay was followed, with the modifications being that due to the rapid action of the AMPs, the assay incubation time was shortened from 16–20 h to 90 min ([CLSI, 2018]). In brief, after the 90 min incubation, bacterial growth was monitored at 10 min intervals with shaking at each interval over a 20 h period at OD630 using a BioTek 800™ TS Absorbance Reader (Millennium Science Pty Ltd. Melbourne, Australia), which incubated the cultures at 37°C. The MIC was calculated using the Lambert and Pearson growth curve analysis method by plotting the relative growth at each peptide concentration compared to maximal growth (determined as the point when bacteria incubated in broth alone entered the stationary phase of growth, 100% growth).

E. coli ATCC 8739 [2] = settings: cation-adjusted MHB, 1 × 10^5 cells/well, 90 min incubation with peptide at 37°C, then growth monitored 20 h at OD630, Lambert and Pearson analysis, mean ± SD, at least three biological repeats
Procedure: as §1, §2, §3

S. aureus ATCC 29213 [3] = settings: cation-adjusted MHB, 90 min incubation at 37°C, plated on LB agar 12–24 h, lowest concentration giving less than one CFU (≥99.9% reduction), mean ± SD, at least three biological repeats
Procedure: as §1, §2
(§4) The CLSI protocol was followed to determine MBC. After incubation, bacteria were serially diluted (1:10) in PBS, plated on LB agar, and incubated for 12–24 h at 37°C; then, the CFUs were quantified. The MBC was thus determined as the lowest concentration (μM) of AMP resulting in less than one CFU. The data were fitted to an exponential model, and as such, 1 CFU was considered to be a ≥99.9% reduction in the initial colony count after incubation.

E. coli ATCC 8739 [4] = settings: cation-adjusted MHB, 90 min incubation at 37°C, plated on LB agar 12–24 h, lowest concentration giving less than one CFU (≥99.9% reduction), mean ± SD, at least three biological repeats
Procedure: as §1, §2, §4

Structure (SMILES)	MIC (S. aureus ATCC 29213 [1])	MIC (E. coli ATCC 8739 [2])	MBC (S. aureus ATCC 29213 [3])	MBC (E. coli ATCC 8739 [4])
CC[C@H](C)[C@H](NC(=O)CN)C(=O)NCC(=O)N[C@@H](C)C(=O)N[C@H](C(=O)N[C@@H](CC(C)C)C(=O)N[C@@H](CCN)C(=O)N[C@H](C(=O)N[C@@H](CC(C)C)C(=O)N[C@H](C(=O)N[C@H](C(=O)NCC(=O)N[C@@H](CC(C)C)C(=O)N1CCC[C@H]1C(=O)N[C@@H](C)C(=O)N[C@@H](CC(C)C)C(=O)N[C@H](C(=O)N[C@@H](CO)C(=O)N[C@@H](Cc1c[nH]c2ccccc12)C(=O)N[C@H](C(=O)N[C@@H](CCN)C(=O)N[C@@H](CCCNC(=N)N)C(=O)N[C@@H](CCN)C(=O)N[C@@H](CCCNC(=N)N)C(=O)N[C@@H](CCC(N)=O)C(=O)N[C@@H](CCC(N)=O)C(N)=O)[C@@H](C)CC)[C@@H](C)CC)[C@@H](C)O)[C@@H](C)O)C(C)C)C(C)C [3. Lys → Dab melittin]	1.47 ± 0.08 µM (≈ 4.06 µg/mL)	5.51 ± 0.52 ^b- µM	1.76 ± 0.92 µM (≈ 4.86 µg/mL)	5.62 ± 1.10 ^a ^, ^b- µM
CC[C@H](C)[C@H](NC(=O)CN)C(=O)NCC(=O)N[C@@H](C)C(=O)N[C@H](C(=O)N[C@@H](CC(C)C)C(=O)N[C@@H](CN)C(=O)N[C@H](C(=O)N[C@@H](CC(C)C)C(=O)N[C@H](C(=O)N[C@H](C(=O)NCC(=O)N[C@@H](CC(C)C)C(=O)N1CCC[C@H]1C(=O)N[C@@H](C)C(=O)N[C@@H](CC(C)C)C(=O)N[C@H](C(=O)N[C@@H](CO)C(=O)N[C@@H](Cc1c[nH]c2ccccc12)C(=O)N[C@H](C(=O)N[C@@H](CN)C(=O)N[C@@H](CCCNC(=N)N)C(=O)N[C@@H](CN)C(=O)N[C@@H](CCCNC(=N)N)C(=O)N[C@@H](CCC(N)=O)C(=O)N[C@@H](CCC(N)=O)C(N)=O)[C@@H](C)CC)[C@@H](C)CC)[C@@H](C)O)[C@@H](C)O)C(C)C)C(C)C [4. Lys → Dap melittin]	1.59 ± 0.15 ^b+ µM	5.62 ± 0.81 ^b- µM	2.76 ± 0.01 ^b+ µM	5.64 ± 1.17 ^a ^, ^b- µM
CC[C@H](C)[C@H](NC(=O)CN)C(=O)NCC(=O)N[C@@H](C)C(=O)N[C@H](C(=O)N[C@@H](CC(C)C)C(=O)N[C@@H](CCCCN)C(=O)N[C@H](C(=O)N[C@@H](CC(C)C)C(=O)N[C@H](C(=O)N[C@H](C(=O)NCC(=O)N[C@@H](CC(C)C)C(=O)N1CCC[C@H]1C(=O)N[C@@H](C)C(=O)N[C@@H](CC(C)C)C(=O)N[C@H](C(=O)N[C@@H](CO)C(=O)N[C@@H](Cc1c[nH]c2ccccc12)C(=O)N[C@H](C(=O)N[C@@H](CCCCN)C(=O)N[C@@H](CCCNC(=N)N)C(=O)N[C@@H](CCCCN)C(=O)N[C@@H](CCCNC(=N)N)C(=O)N[C@@H](CCC(N)=O)C(=O)N[C@@H](CCC(N)=O)C(N)=O)[C@@H](C)CC)[C@@H](C)CC)[C@@H](C)O)[C@@H](C)O)C(C)C)C(C)C [1. Melittin, Melittin]	1.44 ± 0.11 µM (≈ 4.1 µg/mL)	–	–	–
CC[C@H](C)[C@H](NC(=O)CN)C(=O)NCC(=O)N[C@@H](C)C(=O)N[C@H](C(=O)N[C@@H](CC(C)C)C(=O)N[C@@H](CCCN)C(=O)N[C@H](C(=O)N[C@@H](CC(C)C)C(=O)N[C@H](C(=O)N[C@H](C(=O)NCC(=O)N[C@@H](CC(C)C)C(=O)N1CCC[C@H]1C(=O)N[C@@H](C)C(=O)N[C@@H](CC(C)C)C(=O)N[C@H](C(=O)N[C@@H](CO)C(=O)N[C@@H](Cc1c[nH]c2ccccc12)C(=O)N[C@H](C(=O)N[C@@H](CCCN)C(=O)N[C@@H](CCCNC(=N)N)C(=O)N[C@@H](CCCN)C(=O)N[C@@H](CCCNC(=N)N)C(=O)N[C@@H](CCC(N)=O)C(=O)N[C@@H](CCC(N)=O)C(N)=O)[C@@H](C)CC)[C@@H](C)CC)[C@@H](C)O)[C@@H](C)O)C(C)C)C(C)C [2. Lys → Orn melittin]	1.28 ± 0.06 ^b- µM	4.32 ± 0.31 ^a ^, ^b- µM	1.83 ± 1.21 µM (≈ 5.13 µg/mL)	7.10 ± 1.68 ^b- µM
CC[C@H](C)[C@H](NC(=O)CN)C(=O)NCC(=O)N[C@@H](C)C(=O)N[C@H](C(=O)N[C@@H](CC(C)C)C(=O)N[C@@H](CCCCN)C(=O)N[C@H](C(=O)N[C@@H](CC(C)C)C(=O)N[C@H](C(=O)N[C@H](C(=O)NCC(=O)N[C@@H](CC(C)C)C(=O)N1CCC[C@H]1C(=O)N[C@@H](C)C(=O)N[C@@H](CC(C)C)C(=O)N[C@H](C(=O)N[C@@H](CO)C(=O)N[C@@H](Cc1c[nH]c2ccccc12)C(=O)N[C@H](C(=O)N[C@@H](CCCCN)C(=O)N[C@@H](CCCNC(=N)N)C(=O)N[C@@H](CCCCN)C(=O)N[C@@H](CCCNC(=N)N)C(=O)N[C@@H](CCC(N)=O)C(=O)N[C@@H](CCC(N)=O)C(=O)NCCCC[C@H](N)C(=O)NCC(=O)N[C@H](C(=O)NCC(=O)N[C@@H](C)C(=O)N[C@H](C(=O)N[C@@H](CC(C)C)C(=O)N[C@@H](CCCCN)C(=O)N[C@H](C(=O)N[C@@H](CC(C)C)C(=O)N[C@H](C(=O)N[C@H](C(=O)NCC(=O)N[C@@H](CC(C)C)C(=O)N1CCC[C@H]1C(=O)N[C@@H](C)C(=O)N[C@@H](CC(C)C)C(=O)N[C@H](C(=O)N[C@@H](CO)C(=O)N[C@@H](Cc1c[nH]c2ccccc12)C(=O)N[C@H](C(=O)N[C@@H](CCCCN)C(=O)N[C@@H](CCCNC(=N)N)C(=O)N[C@@H](CCCCN)C(=O)N[C@@H](CCCNC(=N)N)C(=O)N[C@@H](CCC(N)=O)C(=O)N[C@@H](CCC(N)=O)C(N)=O)[C@@H](C)CC)[C@@H](C)CC)[C@@H](C)O)[C@@H](C)O)C(C)C)C(C)C)[C@@H](C)CC)[C@@H](C)CC)[C@@H](C)CC)[C@@H](C)O)[C@@H](C)O)C(C)C)C(C)C [6. Antiparallel dimer]	5.18 ± 0.36 ^a ^, ^b+ µM	6.02 ± 1.22 ^b- µM	7.25 ± 1.20 ^a ^, ^b+ µM	5.64 ± 1.08 ^a ^, ^b- µM

Converted amounts (≈) assume the structure as drawn. Marks after values point to notes of the source that are not given here.
